One assay concerns MDA-231-LNA cells. Put plainly: cells. Particulars: 72 h.
For assay [1], the target named is FAK enzyme (catalytic domain, amino acids 411-686) (Homo sapiens, UniProt Q05397). Put plainly: biochemical.
The target in assay [2] is N-terminally GST-fused purified FAK enzyme (Homo sapiens, UniProt Q05397). Put plainly: biochemical.
For assay [3], the target named is VEGFR3 cytoplasmic domain (Homo sapiens, UniProt P35916). The experiment in a line: biochemical.
Assay [4] deals with Phospho VEGFR3 (Flt4) in HMVEC-dLyAD cells (Homo sapiens, UniProt P35916). The experiment in a line: Flt4 Phospho ELISA assay. (An ELISA detects its analyte on a solid surface through an enzyme-linked reagent.)
The target of assay [5] is VEGFR3 cytoplasmic domain (Homo sapiens, UniProt P35916, DEL949-1002). Put plainly: biochemical.

The chains behind the UniProt entries cited, without tags or fusion partners. A line that says so, or that is headed by a name, gives the form on record, which may keep a tag or linker. Residues count along the entry.
UniProt Q05397, 411-686, species assumed: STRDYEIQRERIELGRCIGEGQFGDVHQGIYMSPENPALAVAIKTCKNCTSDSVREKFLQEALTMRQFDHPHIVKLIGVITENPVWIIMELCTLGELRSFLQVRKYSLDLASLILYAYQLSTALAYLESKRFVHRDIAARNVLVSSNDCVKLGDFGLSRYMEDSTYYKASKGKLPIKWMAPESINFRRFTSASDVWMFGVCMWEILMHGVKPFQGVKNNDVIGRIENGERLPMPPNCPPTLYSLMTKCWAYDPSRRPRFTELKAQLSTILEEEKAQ
UniProt Q05397, whole entry: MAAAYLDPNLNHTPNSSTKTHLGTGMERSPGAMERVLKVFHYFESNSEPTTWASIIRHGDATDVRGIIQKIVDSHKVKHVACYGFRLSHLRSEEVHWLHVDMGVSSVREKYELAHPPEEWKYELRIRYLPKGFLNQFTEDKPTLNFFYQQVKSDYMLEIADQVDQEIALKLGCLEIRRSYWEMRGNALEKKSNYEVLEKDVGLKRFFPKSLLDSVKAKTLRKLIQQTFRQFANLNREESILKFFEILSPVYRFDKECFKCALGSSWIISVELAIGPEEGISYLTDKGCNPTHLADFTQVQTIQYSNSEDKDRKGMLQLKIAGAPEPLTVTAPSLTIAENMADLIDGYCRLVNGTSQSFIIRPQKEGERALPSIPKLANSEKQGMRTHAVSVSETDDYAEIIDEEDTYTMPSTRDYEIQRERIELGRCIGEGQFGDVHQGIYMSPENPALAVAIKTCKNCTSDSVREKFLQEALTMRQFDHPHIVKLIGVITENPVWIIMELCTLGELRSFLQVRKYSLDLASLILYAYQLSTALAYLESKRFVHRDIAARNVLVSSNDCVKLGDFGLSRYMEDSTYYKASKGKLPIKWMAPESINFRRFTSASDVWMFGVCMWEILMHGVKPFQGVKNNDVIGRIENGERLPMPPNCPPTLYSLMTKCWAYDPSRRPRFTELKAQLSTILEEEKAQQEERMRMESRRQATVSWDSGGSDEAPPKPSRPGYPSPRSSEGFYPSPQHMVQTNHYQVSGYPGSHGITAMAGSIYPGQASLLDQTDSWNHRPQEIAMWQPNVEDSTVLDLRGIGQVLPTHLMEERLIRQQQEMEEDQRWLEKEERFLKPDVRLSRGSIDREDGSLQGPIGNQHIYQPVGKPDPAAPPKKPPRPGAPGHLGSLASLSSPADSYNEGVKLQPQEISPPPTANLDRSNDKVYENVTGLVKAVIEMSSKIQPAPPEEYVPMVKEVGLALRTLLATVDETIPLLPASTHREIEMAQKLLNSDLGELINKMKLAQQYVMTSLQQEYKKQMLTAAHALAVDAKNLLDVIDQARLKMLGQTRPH
UniProt P35916, other isoform, or with tags, fused parts or gaps: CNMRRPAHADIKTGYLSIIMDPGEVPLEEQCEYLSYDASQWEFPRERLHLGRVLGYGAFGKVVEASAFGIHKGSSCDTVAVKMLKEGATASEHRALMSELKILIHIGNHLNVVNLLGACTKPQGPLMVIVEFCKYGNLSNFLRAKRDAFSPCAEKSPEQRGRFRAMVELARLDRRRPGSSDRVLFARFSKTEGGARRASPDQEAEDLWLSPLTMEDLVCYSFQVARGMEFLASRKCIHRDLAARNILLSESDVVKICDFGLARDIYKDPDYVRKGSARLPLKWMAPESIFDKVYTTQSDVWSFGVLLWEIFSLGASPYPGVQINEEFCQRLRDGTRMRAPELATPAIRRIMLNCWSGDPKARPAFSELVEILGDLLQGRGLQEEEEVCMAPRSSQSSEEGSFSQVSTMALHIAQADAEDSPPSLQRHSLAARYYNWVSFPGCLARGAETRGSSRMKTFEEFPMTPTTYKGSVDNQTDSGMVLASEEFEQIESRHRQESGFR
UniProt P35916, 25-1363: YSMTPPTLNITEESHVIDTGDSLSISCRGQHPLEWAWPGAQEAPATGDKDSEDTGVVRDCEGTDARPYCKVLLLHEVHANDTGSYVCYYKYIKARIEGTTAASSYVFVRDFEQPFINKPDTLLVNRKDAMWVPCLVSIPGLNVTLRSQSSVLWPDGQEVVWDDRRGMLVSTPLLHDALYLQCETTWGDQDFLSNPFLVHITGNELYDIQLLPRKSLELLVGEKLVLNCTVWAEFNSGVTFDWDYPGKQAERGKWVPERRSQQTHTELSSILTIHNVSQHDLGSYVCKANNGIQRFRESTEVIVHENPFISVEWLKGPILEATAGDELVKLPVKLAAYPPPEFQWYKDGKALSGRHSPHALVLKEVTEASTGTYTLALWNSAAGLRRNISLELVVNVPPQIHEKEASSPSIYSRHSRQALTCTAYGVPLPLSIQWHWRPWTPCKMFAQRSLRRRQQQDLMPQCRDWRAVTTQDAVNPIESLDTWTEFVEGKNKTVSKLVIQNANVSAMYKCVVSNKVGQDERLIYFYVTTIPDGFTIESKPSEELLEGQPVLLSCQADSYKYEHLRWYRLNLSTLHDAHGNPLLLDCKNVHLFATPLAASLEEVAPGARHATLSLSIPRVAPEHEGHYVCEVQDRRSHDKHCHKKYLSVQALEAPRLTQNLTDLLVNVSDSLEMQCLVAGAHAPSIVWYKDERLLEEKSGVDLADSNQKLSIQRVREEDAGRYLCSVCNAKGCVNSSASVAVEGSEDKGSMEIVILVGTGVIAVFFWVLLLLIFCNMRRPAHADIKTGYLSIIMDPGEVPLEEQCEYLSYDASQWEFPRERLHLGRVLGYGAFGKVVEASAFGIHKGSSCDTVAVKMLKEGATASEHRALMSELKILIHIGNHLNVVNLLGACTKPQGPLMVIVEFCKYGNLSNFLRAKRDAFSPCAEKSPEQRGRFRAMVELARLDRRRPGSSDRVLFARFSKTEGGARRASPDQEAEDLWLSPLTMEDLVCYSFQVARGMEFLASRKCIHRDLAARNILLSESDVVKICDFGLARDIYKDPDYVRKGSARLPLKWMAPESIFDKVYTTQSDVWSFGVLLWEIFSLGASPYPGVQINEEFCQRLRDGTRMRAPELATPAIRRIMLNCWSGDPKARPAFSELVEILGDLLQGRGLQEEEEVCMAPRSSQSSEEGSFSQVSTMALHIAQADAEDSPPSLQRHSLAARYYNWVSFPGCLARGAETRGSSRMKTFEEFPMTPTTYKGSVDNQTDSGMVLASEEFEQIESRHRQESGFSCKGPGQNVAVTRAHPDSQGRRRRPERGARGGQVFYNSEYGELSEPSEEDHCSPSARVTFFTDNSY
UniProt P35916, with tags, fused parts or gaps DEL949-1002: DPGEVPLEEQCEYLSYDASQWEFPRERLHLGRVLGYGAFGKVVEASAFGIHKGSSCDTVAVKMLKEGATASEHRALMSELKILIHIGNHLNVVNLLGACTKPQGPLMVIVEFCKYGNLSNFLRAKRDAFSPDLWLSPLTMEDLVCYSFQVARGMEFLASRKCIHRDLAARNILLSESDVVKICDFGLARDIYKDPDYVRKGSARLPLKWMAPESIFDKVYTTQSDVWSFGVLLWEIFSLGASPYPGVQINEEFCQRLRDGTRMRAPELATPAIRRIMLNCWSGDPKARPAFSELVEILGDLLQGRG

Broadly, the IC50 is the concentration that inhibits the measured activity by half. Turning to `CCN1CCN(c2ccc(Nc3ncc(C(F)(F)F)c(CCc4ccccc4CC(N)=O)n3)cc2)CC1` [Compound 10, 2-(2-(2-(2-((4-(4-Ethylpiperazin-1-yl)phenyl)amino)-5-(trifluoromethyl)pyrimidin-4-yl)ethyl)phenyl)acetamide], half-maximal inhibition in the assay on MDA-231-LNA cells (IC50) was put at 1.43 µM.

The Kd is the concentration at which binding is half-saturated. In the case of `CC(=O)N1CCN(c2ccc(Nc3ncc(C(F)(F)F)c(CCc4ccccc4CC(N)=O)n3)cc2)CC1` [Compound 13, 2-(2-(2-(2-((4-(4-Acetylpiperazin-1-yl)phenyl)amino)-5-(trifluoromethyl)pyrimidin-4-yl)ethyl)phenyl)acetamide], the values for the half-maximal inhibitory concentration (IC50) (with MDA-231-LNA cells; in assay [1]; in assay [3]) were greater than 1 µM, 0.0006 µM and 0.07 µM, respectively. The compound also had a Kd in assay [2] of 0.00047 µM.

Consider `CC(=O)N1CCC(c2ccc(Nc3ncc(C(F)(F)F)c(CCc4ccccc4CC(N)=O)n3)cc2)CC1` [Compound 23, 2-(2-(2-(2-((4-(1-Acetylpiperidin-4-yl)phenyl)amino)-5-(trifluoromethyl)pyrimidin-4-yl)ethyl)phenyl)acetamide], for which the IC50 in assay [1] was found to be 0.00039 µM; in assay [3], 0.012 µM. The compound further came in with a Kd in assay [2] of 0.0013 µM.

As to `CN(C)C1CCN(c2ccc(Nc3ncc(C(F)(F)F)c(CCc4ccccc4CC(N)=O)n3)cc2)CC1` [Compound 24], the IC50 turned out to be 0.071 µM in assay [4], 1.7 µM in the assay with MDA-231-LNA cells, 0.00077 µM in assay [1] and 0.0039 µM in assay [3]. Further, the Kd in assay [2] was determined as 0.00077 µM.

`NC(=O)Cc1ccccc1CCc1nc(Nc2ccc(CN3CCNCC3)cc2)ncc1C(F)(F)F` [Compound 25, 2-(2-(2-(2-((4-(piperazin-1-ylmethyl)phenyl)amino)-5-(trifluoromethyl)pyrimidin-4-yl)ethyl)phenyl)acetamide]: the concentration for half-maximal inhibition (IC50) in assay [4] is 0.066 µM; in assay [1], 0.003 µM; in assay [3], 0.014 µM. Also, the Kd in assay [2] was determined as 0.0011 µM.

For the compound `CN1CCC(c2ccc(Nc3ncc(C(F)(F)F)c(CCc4nccnc4CC(N)=O)n3)cc2)CC1` [Compound 27], the concentration for half-maximal inhibition (IC50) in the assay with MDA-231-LNA cells came to 2.81 µM; in assay [1], 0.0072 µM; in assay [3], 0.03 µM. Further, binding in assay [2] was characterised by a dissociation constant (Kd) of 0.0166 µM.

As for `CN1CCc2cc(Nc3ncc(C(F)(F)F)c(CCc4ccccc4CC(N)=O)n3)ccc2C1` [Compound 28], in assay [3], the midpoint of inhibition, the IC50, lay at 0.01 µM.

With `CN1CCC(c2ccc(Nc3ncc(C(F)(F)F)c(CCc4ncncc4CC(N)=O)n3)cc2)CC1` [Compound 30], the concentration for half-maximal inhibition (IC50) in assay [4] was 0.658 µM; with MDA-231-LNA cells, greater than 5 µM; in assay [1], 0.011 µM; in assay [3] it was 0.007 µM. For the same compound, the equilibrium dissociation constant (Kd) in assay [2] is 0.0057 µM.

On to `CCN1CCC(c2ccc(Nc3ncc(C(F)(F)F)c(CCc4ccccc4CC(N)=O)n3)cc2)CC1` [Compound 31, 2-(2-(2-(2-((4-(1-Ethylpiperidin-4-yl)phenyl)amino)-5-(trifluoromethyl)pyrimidin-4-yl)ethyl)phenyl)acetamide], for which, in assay [1], the half-maximal inhibitory concentration (IC50) amounted to 0.0036 µM.

Take `NC(=O)Cc1cccnc1CCc1nc(Nc2ccc(C3CCNCC3)cc2)ncc1C(F)(F)F` [Compound 32, 2-(2-(2-(2-((4-(Piperidin-4-yl)phenyl)amino)-5-(trifluoromethyl)pyrimidin-4-yl)ethyl)pyridin-3-yl)acetamide]: the half-maximal inhibitory concentration (IC50) in assay [1] stood at 0.0035 µM; in assay [5], 0.0051 µM. In addition, the dissociation constant (Kd) in assay [2] worked out at 0.0025 µM.

As for `NC(=O)Cc1ccccc1CCc1nc(Nc2ccc(C3CCNC3)cc2)ncc1C(F)(F)F` (stereo not shown) [Compound 35, 2-(2-(2-(2-((4-(Pyrrolidin-3-yl)phenyl)amino)-5-(trifluoromethyl)pyrimidin-4-yl)ethyl)phenyl)acetamide], the results for the half-inhibitory concentration (IC50) in assay [1] and in assay [5] were 0.0077 µM and 0.053 µM, respectively. Further, the dissociation constant (Kd) in assay [2] amounted to 0.0016 µM.

Regarding `CCN1CCC(c2ccc(Nc3ncc(C(F)(F)F)c(CCc4ncccc4CC(N)=O)n3)cc2)CC1` [Compound 38, 2-(2-(2-(2-((4-(1-Ethylpiperidin-4-yl)phenyl)amino)-5-(trifluoromethyl)pyrimidin-4-yl)ethyl)pyridin-3-yl)acetamide], the half-inhibitory concentration (IC50) in assay [1] and in assay [5] was 0.023 µM throughout.

For `NC(=O)Cc1cccnc1CCc1nc(Nc2ccc(C3CCCNC3)cc2)ncc1C(F)(F)F` (stereo not shown) [Compound 39, 2-(2-(2-(2-((4-(Piperidin-3-yl)phenyl)amino)-5-(trifluoromethyl)pyrimidin-4-yl)ethyl)pyridin-3-yl)acetamide], the IC50 in assay [1] was determined as 0.014 µM; in assay [5] it was 0.023 µM.

`CCN1CCCC(c2ccc(Nc3ncc(C(F)(F)F)c(CCc4ncccc4CC(N)=O)n3)cc2)C1` (stereo not shown) [Compound 40, 2-(2-(2-(2-((4-(1-Ethylpiperidin-3-yl)phenyl)amino)-5-(trifluoromethyl)pyrimidin-4-yl)ethyl)pyridin-3-yl)acetamide]: the half-maximal inhibitory concentration (IC50) in assay [1] amounted to 0.051 µM; in assay [5], 0.046 µM.
